What was measured:
[1] = tested on: PBMCs obtained from melanoma patients; experiment: EPIMAX: PBMC culture with peptides or peptide clusters, multiplex bead cytokine assay (Luminex); type: cell-based, human; settings: Patient 2, thawed PBMC after DC vaccine, 10 μg/ml peptide, 48 hours
[2] = tested on: CD8+ T cells in melanoma patient PBMCs; experiment: Expansion of antigen-specific CD8+ T cells with peptide-loaded DCs, tetramer staining; type: cell-based, human; settings: PBMC cultured with autologous monocyte-derived DCs loaded with peptide
Description: To check if this patient's PBMCs contain CD8+ T cells recognizing this dominant epitope, PBMCs were cultured with autologous monocyte-derived DCs loaded with MART-127-35 or other HLA-0201 peptides (e.g., Mage-3, Tyrosinase, and Flu-MP), and examined for the induction of antigen-specific CD8+ T cell population with specific tetramers.

AAGIGILTV [MART-127-35, reference compound]
IL-1α production [1]: slight increase | IP-10 production [1]: marked increase | expansion of MART-1 specific CD8+ T cells (tetramer) [2]: easily expanded within 7 days

From patent publication US20060051358A1, “Immune response assessment method” (Baylor Research Institute, priority 2004, published 2006)
